Assay results: PMC9959349, “Discovery of the 3-Amino-1,2,4-triazine-Based Library as Selective PDK1 Inhibitors with Therapeutic Potential in Highly Aggressive Pancreatic Ductal Adenocarcinoma” (International Journal of Molecular Sciences, 2023)

Sequences of proteins named here, by UniProt entry; tags and fusion partners are left off. Residues count along the entry.
UniProt Q16654, whole entry: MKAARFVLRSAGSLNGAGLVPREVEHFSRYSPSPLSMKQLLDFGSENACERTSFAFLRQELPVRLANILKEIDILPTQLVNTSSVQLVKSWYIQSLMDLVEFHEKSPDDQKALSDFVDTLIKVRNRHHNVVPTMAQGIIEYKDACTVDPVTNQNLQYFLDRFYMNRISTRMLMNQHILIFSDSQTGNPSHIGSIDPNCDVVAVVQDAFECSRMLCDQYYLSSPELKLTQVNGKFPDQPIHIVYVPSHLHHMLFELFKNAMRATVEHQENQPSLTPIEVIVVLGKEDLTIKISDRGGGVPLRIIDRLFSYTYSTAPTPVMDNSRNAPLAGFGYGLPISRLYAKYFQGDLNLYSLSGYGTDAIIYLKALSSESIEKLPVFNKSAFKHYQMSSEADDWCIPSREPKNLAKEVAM
UniProt Q15118, 29-436 limits assumed: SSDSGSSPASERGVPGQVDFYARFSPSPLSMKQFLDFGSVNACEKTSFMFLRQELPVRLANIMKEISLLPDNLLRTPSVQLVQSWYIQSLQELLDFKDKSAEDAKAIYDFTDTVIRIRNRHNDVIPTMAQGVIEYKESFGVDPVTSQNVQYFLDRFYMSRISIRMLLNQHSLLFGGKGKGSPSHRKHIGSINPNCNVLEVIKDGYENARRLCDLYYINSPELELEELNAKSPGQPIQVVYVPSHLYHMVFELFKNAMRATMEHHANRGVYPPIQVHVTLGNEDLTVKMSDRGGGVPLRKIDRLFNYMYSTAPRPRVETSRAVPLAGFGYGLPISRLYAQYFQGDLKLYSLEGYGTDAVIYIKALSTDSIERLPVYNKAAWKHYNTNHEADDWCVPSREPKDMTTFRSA

Legend:
[1] = test system: PSN-1 cells; experiment: Mitochondrial membrane potential (Mito-ID kit); conditions: IC50 concentrations
[2] = test system: PSN-1 cells; experiment: 3D spheroid cytotoxicity, acid phosphatase (APH) assay, PSN-1; conditions: read-out: IC50 ±S.D. PSN-1 (3D cytotoxicity); spheroids, 72 h, APH test
[3] = test system: BxPC-3 cells; experiment: 3D spheroid cytotoxicity, acid phosphatase (APH) assay, BxPC-3; conditions: read-out: IC50 ±S.D. BxPC-3 (3D cytotoxicity); spheroids, 72 h, APH test
[4] = test system: PSN-1 cells; experiment: ROS production (CM-H2DCFDA); conditions: 5 µM test compounds, antimycin 3 µM as positive control
[5] = target: recombinant human PDK4 (Homo sapiens, UniProt Q16654); experiment: ADP-Glo kinase assay, PDK4; conditions: 1.5 µM compound
[6] = target: recombinant human HSP90 (Homo sapiens, UniProt P07900); experiment: HSP90 inhibition assay (Transcreener ADP kit); conditions: 1.5 µM compound (equivalent doses)
[7] = target: recombinant human PDK1 (Homo sapiens, UniProt Q15118); experiment: ADP-Glo kinase assay, PDK1
[8] = test system: PSN-1 cells; experiment: Cellular lactate production; conditions: IC50 concentrations

SMILES	increase in cell population with depleted ΔΨ [1]	percentage of cells with hypopolarized mitochondrial membrane potential (in words) [1]	IC50 [2]	IC50 [3]	ROS basal level production / hydrogen peroxide formation [4]	effect on PDK4 activity (ATP consumption) [5]	decrease of HSP90 catalytic activity [6]	effect on enzymatic activity of PDK1 ([7]; 1.5 µM compound, 30 min preincubation)	IC50 ([7]; read-out: IC50 ±S.D. PDK1, four-parameter logistic model, three independent experiments)	lactate production [8]
COc1ccc2c(c1)c(-c1nc(N)nnc1-c1c[nH]c3ccc(F)cc13)cn2C	about 50%	significantly increased	15.3 µM	12.2 µM	increase in the ROS basal level production	completely blocked	60–80%	totally suppressed	0.1 µM	–
COc1ccc2c(c1)c(-c1nc(N)nnc1-c1cn(C)c3ccc(Br)cc13)cn2C	about 50%	significantly increased	8.7 µM	52.1 µM	even higher than that provoked by antimycin	–	60–80%	–	–	more potent than DAP
